B1: SRP1496-A04 (antibody, V domains shown)
VH: EVQLVESGGGLVQPGGSLRLSCAASGFNINDTYIHWVRQAPGKGLEWVGIIDPYDGATDYADSVKGRFTISADTSKNTAYLQMNSLRAEDTAVYYCAREIFGFYWNPFDYWGQGTLVTVSS
VL: DIQMTQSPSSLSASVGDRVTITCRASQDVNTAVAWYQQKPGKAPKLLIYSASFLYSGVPSRFSGSRSGTDFTLTISSLQPEDFATYYCQQHYTTPPTFGQGTKVEIK
B2: SRP1496-A03 (antibody, V domains shown)
VH: EVQLVESGGGLVQPGGSLRLSCAASGFNINDTYIHWVRQAPGKGLEWVGIIDPYDGATDYADSVKGRFTISADTSKNTAYLQMNSLRAEDTAVYYCAREIFGFYWNPFDYWGQGTLVTVSS
VL: DIQMTQSPSSLSASVGDRVTITCRASQDVNTAVAWYQQKPGKAPKLLIYSASFLYSGVPSRFSGSRSGTDFTLTISSLQPEDFATYYCQQHYTTPPTFGQGTKVEIK
B3: SRP1496-B08 (antibody, V domains shown)
VH: EVQLVESGGGLVQPGGSLRLSCAASGFNINDTYIHWVRQAPGKGLEWVGIIDPYDGATDYADSVKGRFTISADTSKNTAYLQMNSLRAEDTAVYYCAREIFGFYWNPFDYWGQGTLVTVSS
VL: DIQMTQSPSSLSASVGDRVTITCRASQDVNTAVAWYQQKPGKAPKLLIYSASFLYSGVPSRFSGSRSGTDFTLTISSLQPEDFATYYCQQHYTTPPTFGQGTKVEIK

The test has as its target cynomolgus LAG3-Fc (accession # NC 022282.1) (cynomolgus monkey). Kind of test: ELISA, plate-coated cynomolgus LAG3-Fc.
For the molecule B1, the EC50 is 1.6 nM.

For B2, the EC50 is 4.2 nM.

Consider B3, for which the EC50 is 2.6 nM.

Source of the values: patent US20200079850A1.
